## Ab-14 light chain CDR variants: yeast mating affinities

Reference: Engelhart et al. 2022, doi:10.1038/s41597-022-01779-4. File: FLAb, binding data.

Target: peptide PDVDLGDISGINAS, taken from heptad repeat 2 (HR2) of SARS-CoV-2 spike.

The variants keep the heavy chain, the linker and the frameworks of Ab-14 (scFv order VH, a (GGGGS)3 linker, VL).
VH: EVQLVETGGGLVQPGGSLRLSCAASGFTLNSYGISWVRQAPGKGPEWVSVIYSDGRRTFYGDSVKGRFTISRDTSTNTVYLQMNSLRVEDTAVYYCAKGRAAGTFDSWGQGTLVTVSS
VL: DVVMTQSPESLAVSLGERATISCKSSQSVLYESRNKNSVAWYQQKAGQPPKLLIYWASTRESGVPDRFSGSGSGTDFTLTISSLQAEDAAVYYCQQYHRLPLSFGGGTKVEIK

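The parent was found by panning a naive human phage display library on the peptide. In library AAYL50, one, two or three CDR residues were substituted; doubles and triples were drawn at random. The scFvs were displayed on barcoded MATa yeast, the peptide on MATalpha yeast. Mating (16 h, 30 °C) was followed by selection of diploids and sequencing of their barcodes. The ratio of observed to expected reads was calibrated, replicate by replicate, on BCL2-family standards whose Kd was known from biolayer interferometry. There are three technical replicates.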

The parent's light chain CDRs are KSSQSVLYESRNKNSVA, WASTRES, QQYHRLPLS; each variant's own CDRs replace them letter for letter.
Every variant below is changed at S25 of the VL (sequential numbering).
Scale: log10 of Kd in nM, estimated from mating counts; low values are strong binders.
Where no diploid with the target was found in that replicate, the entry reads "ND": below detection, most likely a poor binder, though not proof of it.

For KDSQSVLYESRNKNSVA / WASTRES / QQYHRLPLS, the assay gave 1.98, 2.09, 2.15. Variant KNSQSVLYESRNKNSVA / WASTRGS / FQYHRLPLS gave ND, 4.12, ND. For KASQSVLYESRNKNRVG / WASTRES / QQYHRLPLS, the assay gave ND, ND, ND. Variant KCSQSVLYESRNKNSVA / WALTSES / QQYHRLPLS showed ND, 3.90, ND. For KCSQSVLYQSRNKNSVA / WASTRES / QQYHRLPLS, the assay gave 1.36, 1.35, 1.35. With KDSQQVLYESRNKNSVA / WASTRES / QQFHRLPLS the result was 4.48, 2.82, 3.76.

With KYSQSVLYESVNKNSVA / WASTRES / QQYHRLMLS the result was ND, 4.15, ND. With KGSQSVLYESRNKNSVA / WASTREL / QQYFRLPLS the result was 0.95, 1.17, 1.17. Variant KWSQSVLYESINKNDVA / WASTRES / QQYHRLPLS gave ND, ND, 4.94. With KVSQSVAYESRNKNSVA / WAITRES / QQYHRLPLS the result was 0.70, 0.88, 0.78. For KISQSVLYESRNKNAVA / WASTRES / QQYHRLPIS, the assay gave -0.20, 0.16, -0.12. Variant KNHASVLYESRNKNSVA / WASTRES / QQYHRLPLS gave 1.30, 1.49, 1.53.

For KESQSVLYESRNKNSVA / WASTKES / QQYHRLPLS, the assay gave 2.21, 2.18, 1.86. Variant KKSQSVDYESLNKNSVA / WASTRES / QQYHRLPLS gave ND, ND, 4.25. Variant KFSQSVLYESRNKNSVA / WAHHRES / QQYHRLPLS gave 0.44, 0.53, 0.56. For KFSQSVLYESRNKNDVA / WASTRES / QQYHRLPLS, the assay gave ND, ND, ND. Variant KTSQSVLYESRNKNSVA / VASTRES / QQYHRLPLS gave 2.76, 2.54, 3.01. With KMPQSVLYESRNKNSVA / WASTIES / QQYHRLPLS the result was 0.50, 0.77, 0.69.

Variant KYSQSVLYESRNKNSVA / WASTAPS / QQYHRLPLS gave 3.97, 4.25, 3.36. For KLSQSVVYESRNKYSVA / WASTRES / QQYHRLPLS, the assay gave -0.18, 0.23, 0.04. Variant KKSQSVLYESRNKNSVA / WASTRES / QQKHRLSLS showed 3.13, ND, 4.81. Variant KHSQSVLYESRNKNSVA / WASTREA / QQYNRLPLS gave 0.75, 0.93, 0.94. Variant KCSQSVLYESRNKNSVA / WASTRED / QSYHRLPLS gave 0.04, 0.37, 0.18. With KQSQSVLYESRNKNSVA / WASTTES / QQYGRLPLS the result was 2.34, 2.26, 2.88.

Variant KDSQSVLYTSRCKNSVA / WASTRES / QQYHRLPLS showed 2.47, 2.34, 2.73. Variant KPSVSVLYEGRNKNSVA / WASTRES / QQYHRLPLS showed 2.66, 2.50, 2.74. Variant KVSQSVDYESRNKNSVA / WASTFES / QQYHRLPLS gave ND, ND, ND. Variant KGSQPVVYESRNKNSVA / WASTRES / QQYHRLPLS showed 1.29, 1.52, 2.00. With KPSQSVLYESRNKNSVA / WDSTRES / QQYHRLPWS the result was ND, ND, 3.94. With KHSQSVLYESRNKNSVA / WASTRTS / QQYHRLQLS the result was ND, ND, ND.

Variant KCSQSVLYESRHKNSVA / WASTRES / QGYHRLPLS gave 1.91, 1.76, 1.88. Variant KISQSVLYESRNKNSVA / WASPRES / QVYHRLPLS showed ND, ND, ND. With KKSQSVLYESRNKNSVA / WWSTRES / QQYHHLPLS the result was ND, ND, 2.81. Variant KASQSVFYESRNKNSDA / WASTRES / QQYHRLPLS gave 4.67, 4.20, 3.74. For KGSQSVLYESRNKNVVA / WASTRES / QTYHRLPLS, the assay gave ND, 4.56, 4.33. With KCSQSVLYESKNKNSVA / WASGRES / QQYHRLPLS the result was 4.37, 2.75, ND.

Variant KLSQSVLYESRNKNSLA / HASTRES / QQYHRLPLS gave -0.41, -0.03, -0.28. Variant KRSQSVLYESRNRWSVA / WASTRES / QQYHRLPLS gave 2.96, ND, 4.68. Variant KASQSVLYESRNKNSVA / WASQRES / QQSHRLPLS showed 0.61, 0.79, 0.72. Variant KWSQSVLYESRNKNSVA / WASTRES / QQYHRLPLS showed 1.16, 1.31, 1.40. With KKSQSVLYEKRNKNSVA / WAITRES / QQYHRLPLS the result was ND, ND, 3.22. With KCSQSCLYESRNKNRVA / WASTRES / QQYHRLPLS the result was 1.87, 1.80, 2.10.

Variant KVSQSVLYESRNKNSVA / WASTREV / QQYHHLPLS gave -0.32, 0.04, -0.14. Variant KGSQSVLYESRNKNSVA / WASTYES / QQYHRKPLS showed ND, ND, ND. Variant KKSQSVLYESRNKNSVA / WASQVES / QQYHRLPLS gave 5.20, ND, 4.05. Variant KQSQSVLYESRNQTSVA / WASTRES / QQYHRLPLS gave 2.01, 2.11, 2.30. With KQWQSVLYESRNKNSVA / WASTRES / QQIHRLPLS the result was ND, ND, ND.

Again, the first 7 entries without any signal:

The variant KASQSVLYESRNKNRVG / WASTRES / QQYHRLPLS showed ND, ND, ND.
The variant KFSQSVLYESRNKNDVA / WASTRES / QQYHRLPLS showed ND, ND, ND.
The variant KVSQSVDYESRNKNSVA / WASTFES / QQYHRLPLS showed ND, ND, ND.
The variant KHSQSVLYESRNKNSVA / WASTRTS / QQYHRLQLS showed ND, ND, ND.
The variant KISQSVLYESRNKNSVA / WASPRES / QVYHRLPLS showed ND, ND, ND.
The variant KGSQSVLYESRNKNSVA / WASTYES / QQYHRKPLS showed ND, ND, ND.
The variant KQWQSVLYESRNKNSVA / WASTRES / QQIHRLPLS showed ND, ND, ND.

In this assay the parent's reference entry averaged 0.65; its copy inside this library read 1.68.
Nonspecific signal, from three strains lacking the peptide, appeared in 18% of pairings of library AAYL50, centred on 4.19 (5% of these signals below 2.99); values are not corrected for it.